Here are results for one substance from patent US20090263852A1, “NONAPOPTOTIC FORMS OF CELL DEATH AND METHODS OF MODULATION” (priority 2000, published 2009).

The assay relates to IGFIR-IC transfected 293T cells. In words: IGFIR-IC-induced cell death (paraptosis) in transfected 293T cells, trypan blue exclusion. Particulars: 0.5 mg pIGFIR-IC cotransfected with 1.5 mg construct. Format: cell-based. On the procedure:
Transient transfections used Lipofect-Amine (GIBCO, BRL, Rockville, Md.) according to the manufacturer's instructions. Briefly, 1×10^6 293T cells were seeded in 6 cm dishes, and transfected the next day using a ratio of DNA:Lipofect-Amine of 1 μg:5 μl. Transfection efficiency was 60-80% for 293T, as determined by X-gal staining after transfection of a b-galactosidase construct.
Following expression of the IGIFR-IC constructs, the cell cultures were assayed for cell death. Cell death was assessed by trypan blue exclusion. Floating cells were collected at the indicated times after transfection, by centrifugation for 10 minutes at 1500 rpm. […] Dead cells were counted by 4 independent hemocytometer counts. […]
To assess IGFIR-induced cell death following treatment with Actinomycin D and cycloheximide, both drugs were obtained form Sigma and added to IGFIR-IC transfected 293T cells. […] Floating cells were collected 24 hrs after the removal of the drugs and dead cells were counted in the presence of trypan blue.
To assess whether caspase-9 has a functional role in IGFIR-induced cell death 293T cells were transfected with 2 μg of DNA consisting of either pcDNA3, 0.5 μg pIGFIR-IC+1.5 μg pcDNA3 (Invitrogen, Carlsbad, Calif.), or 0.5 μg pIGFIR-IC+1.5 μg dominant negative caspase-9 (pC9DN) or dominant negative caspase-7 (pC7DN) expression constructs. 48 hours after transfection, dead cells were counted. […]

“Also recorded” adds a separate entry of the source.

In the case of “xiap: X-chromosome-linked inhibitor of apaoptosis, cotransfected as expression construct”, the “inhibition of IGFIR-IC-induced cell death by cotransfection” value is “Neither the administration of the caspase inhibitor BAF at 50 mM (A) nor the cotransfection of xiap (B) or Bcl-xL (C) were effective; also recorded: neither”.
